Data: US10442871B2, “Modified cyclodextrins for the selective sequestration of fentanyl related compounds and uses thereof” (dated 2019)

How the values were obtained:
[1] = 1H NMR titration, CD:fentanyl binding affinity; settings: NMR-derived binding affinity; HCl salt; D2O; error in parentheses from NLLS regression
[2] = 1H NMR titration, CD:thiofentanyl binding affinity; settings: NMR-derived binding affinity; HCl salt
[3] = 1H NMR titration, CD:acetylfentanyl binding affinity; settings: NMR-derived binding affinity; HCl salt
[4] = 1H NMR titration, CD:acetylthiofentanyl binding affinity; settings: NMR-derived binding affinity; HCl salt

**Q.** Which results are given for 6-deoxy-6-amino-β-CD?
**A.** K, fentanyl HCl [1]: 174 (16) M^−1; K, thiofentanyl HCl [2]: 177 (33) M^−1; K, acetylfentanyl HCl [3]: 66 (8) M^−1; K, acetylchiofentanyl HCl [4]: 108 (28) M^−1
